For this data set, the system named is mice. Description: Acute toxicity in mice, i.v. bolus. The class given is in vivo. The following applies: LD50-interval: between highest dose where 4 mice survived and lowest dose where 4 mice died within 5 minutes after i.v. bolus. As for the experimental part:
d) Acute toxicity in mice
The antagonists to be tested were dissolved in 0.9% NaCI. If they were not soluble in 0.9% NaCI they were dissolved in double distilled water. The solutions were prepared on the day of the experiment.
White male mice, 25 g, were placed in a mouse holder. The tested compounds were given as i.v. bolus doses in one of the four tail-veins, with a volume of 0.01 ml/g mouse. Each substance concentration was given to a group of four mice. 4-5 different concentrations of the antagonists were made and tested.
LDso-interval : The LD50-interval was between the highest dose where 4 mice survived and the lowest dose where 4 mice died within 5 minutes after an i.v. bolus dose.

In the case of `Cc1ccc(O)c(C(CCN(C(C)C)C(C)C)c2ccccc2)c1.O=C(O)C(O)C(O)C(=O)O` (single isomer, unassigned) [Compound 4b, (-)-N,N-Diisopropyl-3-(2-hydroxy-5-methylphenyl)-3-phenylpropylamine hydrogen D(-)-tartrate], the “Acute toxicity i.v.” value lay within 10 to 20 mg/kg.

For the origin of these results see patent publication EP0325571B1, “New amines, their use and preparation” (priority 1988, dated 1989).
